Consider one compound from ChEMBL document CHEMBL1132559 (J Med Chem, 1999).

Chains of the proteins cited; added tags and fusions are not shown.
UniProt P14842, whole entry: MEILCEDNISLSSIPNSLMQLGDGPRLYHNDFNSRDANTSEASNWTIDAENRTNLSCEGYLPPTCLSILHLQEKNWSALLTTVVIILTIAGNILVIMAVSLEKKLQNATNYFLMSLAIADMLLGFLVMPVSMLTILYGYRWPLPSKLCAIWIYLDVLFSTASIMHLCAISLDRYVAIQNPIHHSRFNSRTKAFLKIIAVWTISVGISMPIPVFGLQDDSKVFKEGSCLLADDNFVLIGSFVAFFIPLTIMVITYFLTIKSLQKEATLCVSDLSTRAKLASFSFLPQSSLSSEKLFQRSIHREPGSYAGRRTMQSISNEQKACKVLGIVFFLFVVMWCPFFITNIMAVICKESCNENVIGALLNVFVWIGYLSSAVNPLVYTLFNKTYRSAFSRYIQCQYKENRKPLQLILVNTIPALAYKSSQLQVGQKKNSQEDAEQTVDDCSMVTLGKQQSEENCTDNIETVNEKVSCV

The assay deals with 5-hydroxytryptamine receptor 2A (Rattus norvegicus, UniProt P14842). Put plainly: Compound was tested for the inhibition of [3H]ketanserin binding to 5-hydroxytryptamine 2A receptor. In a few lines:
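Radioligand displacement on rat cortical membranes using [3H]ketanserin (1.0 nM), with methysergide as the reference compound. IC50 derived from six test concentrations, each in triplicate, in one experiment. Run at an external screening laboratory.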

The structures appear in SMILES notation. pIC50: −log10 of the molar value.

Broadly, the pIC50 is −log10 of the IC50, conventionally taken in molar units. Lower therefore signals a large IC50. `O=c1n(CCCN2CCN(c3cccc(Cl)c3)CC2)nc2ccccn12` [TRAZODONE] showed a pIC50 of 7.77.
